# Yeast mating assay 1: variants of the scFv Ab-14

The measurements come from Engelhart et al. 2022 (doi:10.1038/s41597-022-01779-4) through the FLAb antibody collection.

All variants were tested on one target, the spike HR2 peptide PDVDLGDISGINAS (SARS-CoV-2).

Parent: Ab-14, a human scFv built as VH, a 15-residue (Gly4Ser)3 linker, VL. Only the CDRs of the light chain vary.
VH: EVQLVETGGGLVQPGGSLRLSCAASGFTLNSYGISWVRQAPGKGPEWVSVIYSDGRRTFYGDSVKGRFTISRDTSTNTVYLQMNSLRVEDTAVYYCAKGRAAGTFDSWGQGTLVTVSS
VL: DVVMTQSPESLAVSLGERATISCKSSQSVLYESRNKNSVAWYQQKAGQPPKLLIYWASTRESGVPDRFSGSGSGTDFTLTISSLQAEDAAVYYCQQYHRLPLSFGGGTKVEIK

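The starting antibody came from a phage panning campaign against this peptide. Variants in AAYL50 differ from the parent at up to three CDR positions; double and triple changes were sampled at random. The assay is AlphaSeq: two haploid yeast populations carry antibody and antigen on their surface. The frequency of each diploid, read from paired DNA barcodes, reflects how well the two displayed proteins bind. Each replicate has its own calibration line, from reference interactions of the BCL2 family. The assay was run in three technical replicates.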

Substitutions are numbered in sequence along the VL above, starting at 1 (not Kabat). This list gathers variants with a substitution at T59 (VL, numbered from residue 1). Kd is apparent (estimated from mating counts) and averaged on the log scale over replicates with a signal. Smaller is tighter. "nd" marks a missing value. The strain was present, yet no cells mated with the target were sequenced in any replicate, which points to weak or no binding. Empty control strains, which show no peptide, gave a signal in 18% of pairings with library AAYL50; the median was 15 µM and 95% of these signals were weaker than 970 nM. No background was subtracted.

* S33Y+A57T+T59D -> 120 nM (3 of 3 replicates)
* A57R+T59W -> 580 nM (1 of 3 replicates)
* S58D+T59F+L102R -> 4.2 µM (3 of 3 replicates)
* R34F+T59M+Y97G -> nd (0 of 3 replicates)
* Y31I+T59P+P101D -> 12 µM (3 of 3 replicates)
* S38A+T59W+S103H -> 150 nM (2 of 3 replicates)
* E32R+N37V+T59S -> 18 µM (2 of 3 replicates)
* S26I+W56E+T59C -> 1.1 nM (3 of 3 replicates)
* K24D+T59S+L102P -> nd (0 of 3 replicates)
* S26G+T59Q+Q96I -> 940 nM (2 of 3 replicates)
* Q27S+T59H -> 20 nM (3 of 3 replicates)
* T59H+Y97V+H98Y -> 50 nM (3 of 3 replicates)
* A40F+A57V+T59F -> 2.5 µM (1 of 3 replicates)
* T59I -> 15 nM (3 of 3 replicates)
* S25D+T59E -> 1.5 nM (3 of 3 replicates)
* R34E+T59A+L100F -> 22 nM (3 of 3 replicates)
* S28T+T59F+Q96G -> 31 µM (1 of 3 replicates)
* Y31E+W56H+T59P -> 610 nM (1 of 3 replicates)
* S33Q+S38P+T59R -> 62 nM (1 of 3 replicates)
* S33W+T59A+E61W -> 3.0 µM (1 of 3 replicates)
* E32D+A40W+T59E -> nd (0 of 3 replicates)
* S38I+T59V+Q95W -> nd (0 of 3 replicates)
* S33H+T59Q+P101T -> 7.9 µM (1 of 3 replicates)
* Q27I+T59D+R60V -> 30 µM (1 of 3 replicates)
* V39S+T59R+Q95K -> 14 µM (2 of 3 replicates)
* T59P+E61R+Q95Y -> 1.1 mM (1 of 3 replicates)
* E32S+V39Q+T59C -> nd (0 of 3 replicates)
* E32W+N35P+T59W -> 460 µM (1 of 3 replicates)
* E32K+S58F+T59Q -> 3.4 µM (3 of 3 replicates)
* T59V+E61I+R99T -> nd (0 of 3 replicates)
* S58I+T59I+Q95S -> 61 nM (3 of 3 replicates)
* S26R+R34G+T59S -> 610 nM (3 of 3 replicates)
* T59F+S62Q+L102K -> nd (0 of 3 replicates)
* S33L+N35Q+T59N -> 120 nM (3 of 3 replicates)
* S33D+A40F+T59H -> 280 µM (1 of 3 replicates)
* V39N+T59Q -> 270 µM (1 of 3 replicates)
* S26Y+S33Q+T59H -> 99 nM (3 of 3 replicates)
* S33L+T59D+H98I -> 70 nM (3 of 3 replicates)
* N35C+T59P+Q95V -> 700 µM (1 of 3 replicates)
* S28R+K36L+T59V -> 32 nM (3 of 3 replicates)
* W56V+T59W+Q96P -> 21 µM (1 of 3 replicates)
* S26L+L30P+T59S -> 81 nM (3 of 3 replicates)
* N37V+T59A+L100S -> 13 µM (3 of 3 replicates)
* V29W+K36D+T59W -> 27 nM (3 of 3 replicates)
* Y31C+V39A+T59D -> 240 µM (2 of 3 replicates)
* T59Y+Y97W+R99H -> 8.7 µM (1 of 3 replicates)
* N35P+V39Q+T59P -> 100 µM (1 of 3 replicates)
* E32L+T59P+R99L -> 140 nM (3 of 3 replicates)
* W56V+T59Y+Y97W -> nd (0 of 3 replicates)
* Y31H+A57I+T59Y -> 4.9 nM (3 of 3 replicates)

Top 8 of the variants detected in all replicates, tightest first:

- S26I+W56E+T59C: 1.1 nM (3 of 3 replicates)
- S25D+T59E: 1.5 nM (3 of 3 replicates)
- Y31H+A57I+T59Y: 4.9 nM (3 of 3 replicates)
- T59I: 15 nM (3 of 3 replicates)
- Q27S+T59H: 20 nM (3 of 3 replicates)
- R34E+T59A+L100F: 22 nM (3 of 3 replicates)
- V29W+K36D+T59W: 27 nM (3 of 3 replicates)
- S28R+K36L+T59V: 32 nM (3 of 3 replicates)

Parent in this assay: reference entry 4.4 nM, copy in this library 48 nM.